Laboratory results as given in patent US10220090B2, “BCMA Antigen binding proteins” (Amgen Inc., priority 2012, dated 2019).
Residue numbers refer to the chain shown, from its start.

By UniProt entry, the sequences of proteins in these tests, tags left out. Chains listed by the source or under a name are the forms on record and can include a tag or linker.
UniProt Q02223, with tags, fused parts or gaps: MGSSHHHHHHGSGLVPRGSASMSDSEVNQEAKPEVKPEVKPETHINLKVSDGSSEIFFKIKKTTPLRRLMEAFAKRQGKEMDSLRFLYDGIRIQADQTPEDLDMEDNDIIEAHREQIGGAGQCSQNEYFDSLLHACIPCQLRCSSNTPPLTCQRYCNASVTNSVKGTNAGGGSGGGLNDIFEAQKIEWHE

B1: Ab-3: anti-huBCMA mAb, heavy chain SEQ ID NO:278, light chain SEQ ID NO:284 (antibody)
heavy: EVQLLESGGGLVQPGGSLRLSCAASGFTFSSYAMNWVRQAPGKGLEWVSAISVGGDTYYADSVKGRFTISRDNSKNTLYLQVNSLRAEDSAVYYCAKDQVTLVRGVWYYYGLDVWGQGTTVTVSSASTKGPSVFPLAPSSKSTSGGTAALGCLVKDYFPEPVTVSWNSGALTSGVHTFPAVLQSSGLYSLSSVVTVPSSSLGTQTYICNVNHKPSNTKVDKKV[omitted - human IgG1 Fc]
light: DIVLTQSPLSLPVTPGEPASISCRSSQSLLHSNGNNYLDWYLQKPGQSPHLLISLGSQRTSGVPDRFSGSGSGTDFTLKISRVEAEDVGVYYCMQALQPPRRFGQGTKLEIKRTVAAPSVFIFPPSDEQLKSGTASVVCLLNNFYPREAKVQWKVDNALQSGNSQESVTEQDSKDSTYSLSSTLTLSKADYEKHKVYACEVTHQGLSSPVTKSFNRGEC
B2: Ab-2: anti-huBCMA mAb, heavy chain SEQ ID NO:276, light chain SEQ ID NO:282 (antibody)
heavy: B1 heavy with V82M, S90T, L102M
light: B1 light with L4M

Key:
[1] = Differential Scanning Calorimetry (DSC) thermostability; type: physicochemical; settings: DSC, full-length antibody
From the text: Differential Scanning calorimetry (DSC) was used to compare the thermostability of parent and engineered antibodies. DSC is a thermodynamical tool for direct assessment of the heat energy uptake, which occurs in a sample within a regulated increase or decrease in temperature. DSC is commonly employed to assess the thermal and conformational stability of a protein. The melting temperature of a protein, or of individual domains, can be obtained from the DSC profile, and if the reaction is reversible the thermodynamic parameters of the unfolding can be determined. A protein is considered more thermostable when the Tm (transition temperature) is higher. When thermostability data are compared to other bioanalytical methods, like size exclusion chromatography (SEC), it has been observed that a correlation between greater thermostability (higher Tm) and decreased aggregation. Antibodies with a higher Tm and decreased aggregation formation have the potential for improved long-term stability thus potentially making better biotherapeutics.
DSC was carried out using a MicroCal™ VP-Capillary DSC system (GE Healthcare, Piscataway, N.J.) equipped with an auto-sampler. The temperature differences between the reference and sample cells are continuously measured, and calibrated to power units. For example, the full-length antibodies shown in TABLE 10 were diluted to 0.5 mg/mL in a buffered solution. The solution reference and protein samples were measured in a 135 μL cell from 20 to 110° C. at a heating rate of 60° C./hour. The pre-scan was set at 15 minutes while the filtering period was 10 seconds. Signal from the blank buffer solution was used for baseline subtraction. The data analysis was performed using MicroCal™ Origin 7 software. Heat capacity during protein melting was calculated by normalizing over protein concentration.

[2] = target: recombinant human (rhu) BCMA (Homo sapiens, UniProt Q02223); assay: Biacore T200 biosensor analysis, rhu BCMA (Example 16); type: binding
Procedure: (§1) Assay conditions: Biosensor analysis was conducted at 25° C. in a HBS-P buffer system (10 mM HEPES pH 7.4, 150 mM NaCl, and 0.5% Surfactant P20) using a Biacore T200 optical biosensor equipped with a CM5 sensor chip according to the manufacturer's general protocol. The autosampler was maintained at 8° C.
(§2) Surface Preparation: Goat anti-human IgG capture antibody (Jackson Laboratories; 109-005-098) was immobilized to all flow cells of the sensor chip using standard amine coupling chemistry (9,000 RU). This surface type provided a format for reproducibly capturing fresh analysis antibodies (ligand) after each regeneration step.
(§3) Ligand Preparation: Flow cells 1, 2, and 3 were used to analyze captured anti-BCMA antibodies (˜400-500 RU) while flow cell 4 was used as the reference flow cell.
(§4) Analyte Preparation: Six rBCMA concentrations ranging from 75.0 to 0.309 nM (3-fold dilutions) were prepared in running buffer. The rrat BCMA fusion protein (GS::6×His::Sumo::ratBCMA(aa 2-49)::GGS::G3::Avi) sequence:
(§5) Interaction Parameters: Each of the six analyte sample concentrations were run in duplicate and in a mixed order, as a means of assessing the reproducibility of binding and managing potential systematic bias to the order of injection. Multiple blank (buffer) injections also were run and used to assess and subtract system artifacts. The association and dissociation phases for all analyte concentrations were monitored for 300 s and 3600 s, respectively, at a flow rate of 50 uL/min.
(§6) Surface Regeneration: The surface was regenerated with 10 mM glycine, pH 1.5 for 30 s, at a flow rate of 50 uL/min.
(§7) Model/Fit: The data was aligned, double referenced, and fit using Scrubber 2™ software, which is an SPR data processing and non-linear least squares regression fitting program. First, a dissociation rate coefficient (kd) was determined from the first 600 s of the dissociation phase data. Second, the dissociation rate coefficient was applied as a fixed parameter in the global fit of the 300 s association phase data using a 1:1 binding model to determine the association rate coefficient (ka) and the Rmax value.

[3] = test system: recombinant rat (rrat) BCMA; assay: Biacore T200 biosensor analysis, rrat BCMA (Example 16); type: binding
Procedure: as §1, §2, §3, §4, §5, §6, §7

[4] = pI (Whole) of antibodies; type: physicochemical; settings: method not stated

Molecule	Tm [1]	Rmax (RU) [2]	ka [2]	kd [2]	ka [3]	kd [3]	pI (Whole) [4]
B1	79 °C	40.2 RU	565000 M⁻¹ s⁻¹	0.000424 s⁻¹	626000 M⁻¹ s⁻¹	0.00129 s⁻¹	8.55
B2	82.5 °C	52.5 RU	638000 M⁻¹ s⁻¹	0.000707 s⁻¹	597000 M⁻¹ s⁻¹	0.0014 s⁻¹	8.55
